Experimental findings from patent US10954219B2, “1,3-benzodioxole derivative” (DAIICHI SANKYO COMPANY, LIMITED, priority 2014, dated 2021) are described below.

The chains behind the UniProt entries cited, without tags or fusion partners.
UniProt Q92800, whole entry: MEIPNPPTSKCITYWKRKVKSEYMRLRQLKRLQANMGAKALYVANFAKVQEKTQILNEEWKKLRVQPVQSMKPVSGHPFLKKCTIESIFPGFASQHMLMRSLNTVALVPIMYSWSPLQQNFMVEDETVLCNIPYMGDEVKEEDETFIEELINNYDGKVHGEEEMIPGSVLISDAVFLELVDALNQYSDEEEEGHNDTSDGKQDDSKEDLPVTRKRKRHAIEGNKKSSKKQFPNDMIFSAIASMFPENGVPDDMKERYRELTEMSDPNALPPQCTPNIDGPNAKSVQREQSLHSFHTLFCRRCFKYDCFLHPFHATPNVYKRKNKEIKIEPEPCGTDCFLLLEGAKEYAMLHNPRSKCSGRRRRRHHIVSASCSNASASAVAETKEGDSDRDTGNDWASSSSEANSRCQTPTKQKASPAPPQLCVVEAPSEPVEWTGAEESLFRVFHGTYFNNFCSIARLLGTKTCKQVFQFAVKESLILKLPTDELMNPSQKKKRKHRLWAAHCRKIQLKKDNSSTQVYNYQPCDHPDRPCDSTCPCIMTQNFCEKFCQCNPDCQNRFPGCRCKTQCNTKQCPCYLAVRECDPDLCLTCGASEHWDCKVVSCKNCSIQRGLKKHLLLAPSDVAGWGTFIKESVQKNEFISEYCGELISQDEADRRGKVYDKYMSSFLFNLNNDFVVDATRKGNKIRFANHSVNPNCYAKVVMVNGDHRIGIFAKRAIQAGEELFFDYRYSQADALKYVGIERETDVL

One experiment addresses PRC2-EZH1 (WT EZH1) (Homo sapiens, UniProt Q92800). Description: EZH1 methyltransferase inhibitory activity evaluation.
Experiment [1] concerns Intracellular H3K27me3 in HCT116 cells. The experiment can be described thus: Intracellular H3K27me3 inhibitory activity evaluation. The class given is cell-based. The conditions noted are these: Homo sapiens, HCT-116, 72 h, read-out: Test Example 3 H3K27me3 inhibition (HCT116) IC50 (μM).

pIC50: −log10 of the molar value.

By pIC50 is commonly meant the negative decadic logarithm of the IC50, by convention in mol/L. Lower therefore signals a high IC50. Take `Cc1cc(C)c(CNC(=O)c2cc(Br)c3c(c2C)O[C@@](C)([C@H]2CC[C@H](N(C)C)CC2)O3)c(=O)[nH]1` (single isomer, unassigned) [Example 15]: the pIC50 at PRC2-EZH1 (WT EZH1) is 8.13.
For the compound `Cc1cc(C)c(CNC(=O)c2cc(Br)c3c(c2C)OC(C)([C@H]2CC[C@@H](N(C)C)CC2)O3)c(=O)[nH]1` (relative stereo) [Example 41, 7-Bromo-2-[cis-4-(dimethylamino)cyclohexyl]-N-[(4,6-dimethyl-2-oxo-1,2-dihydropyridin-3-yl)methyl]-2,4-dimethyl-1,3-benzodioxole-5-carboxamide], the pIC50 on PRC2-EZH1 (WT EZH1) is 7.23.
Broadly, the IC50 is the midpoint of a concentration-inhibition curve. With `CCN1CCN(c2ccc(-c3cc(C(=O)NCc4c(C)cc(C)[nH]c4=O)c(C)c4c3O[C@](C)(CN3CCOCC3)O4)cn2)CC1` [Example 77, (2R)—N-[(4,6-Dimethyl-2-oxo-1,2-dihydropyridin-3-yl)methyl]-7-[6-(4-ethylpiperazin-1-yl)-3-pyridyl]-2,4-dimethyl-2-(morpholinomethyl)-1,3-benzodioxole-5-carboxamide], the half-maximal inhibitory concentration (IC50) in experiment [1] was 0.024 µM.
